ChEMBL document CHEMBL3994588, “Importance of 5/6-aryl substitution on the pharmacological profile of 4'-((2-propyl-1H-benzo[d]imidazol-1-yl)methyl)-[1,1'-biphenyl]-2-carboxylic acid derived PPARγ agonists” (Eur J Med Chem, 2017)

Chains of the proteins cited; added tags and fusions are not shown. Lines headed by an entry give the natural chain unless they say otherwise; changes in a name come on top.
UniProt P37231: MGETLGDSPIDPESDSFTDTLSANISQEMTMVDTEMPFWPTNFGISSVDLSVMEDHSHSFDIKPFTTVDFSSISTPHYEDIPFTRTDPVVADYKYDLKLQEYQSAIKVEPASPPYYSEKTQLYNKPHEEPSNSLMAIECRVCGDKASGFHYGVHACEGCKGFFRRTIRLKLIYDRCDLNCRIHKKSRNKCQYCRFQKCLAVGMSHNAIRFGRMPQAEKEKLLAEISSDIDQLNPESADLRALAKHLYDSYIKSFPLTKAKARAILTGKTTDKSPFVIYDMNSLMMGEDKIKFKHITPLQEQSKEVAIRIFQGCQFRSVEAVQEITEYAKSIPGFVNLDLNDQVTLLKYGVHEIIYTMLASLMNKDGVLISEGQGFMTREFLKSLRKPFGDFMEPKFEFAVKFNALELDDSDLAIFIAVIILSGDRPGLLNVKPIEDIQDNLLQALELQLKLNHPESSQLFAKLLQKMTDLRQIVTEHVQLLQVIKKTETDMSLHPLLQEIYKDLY

Target: Peroxisome proliferator-activated receptor gamma (Homo sapiens, UniProt P37231)
Test: Transactivation of Gal4 fused human PPARgamma LBD expressed in African green monkey COS7 cells after 42 hrs by dual luciferase reporter gene assay
Assay type: cell-based

## CCCc1nc2cc(-c3cccc(Cl)c3)ccc2n1Cc1ccc(-c2ccccc2C(=O)O)cc1
  Activity: Dose-dependent effect
